Experimental data: patent US8975417B2, “Pyrazolopyrrolidine derivatives and their use in the treatment of disease” (Novartis AG, priority 2013, dated 2015)

Chains of the proteins cited; added tags and fusions are not shown. Residues count along the entry.
UniProt Q15059, 20-477: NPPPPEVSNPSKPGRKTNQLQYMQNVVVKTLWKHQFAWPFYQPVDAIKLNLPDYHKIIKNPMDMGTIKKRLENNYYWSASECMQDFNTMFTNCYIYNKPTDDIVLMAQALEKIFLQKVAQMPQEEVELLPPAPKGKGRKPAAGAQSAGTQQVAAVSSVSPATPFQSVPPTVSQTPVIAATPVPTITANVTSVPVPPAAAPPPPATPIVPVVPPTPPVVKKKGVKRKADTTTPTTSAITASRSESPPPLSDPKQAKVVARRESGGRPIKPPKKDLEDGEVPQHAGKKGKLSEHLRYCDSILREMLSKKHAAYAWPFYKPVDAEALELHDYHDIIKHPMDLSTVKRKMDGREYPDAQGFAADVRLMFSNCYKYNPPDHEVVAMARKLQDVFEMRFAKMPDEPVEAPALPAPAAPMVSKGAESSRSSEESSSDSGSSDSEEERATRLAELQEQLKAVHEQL
UniProt P25440, 60-472: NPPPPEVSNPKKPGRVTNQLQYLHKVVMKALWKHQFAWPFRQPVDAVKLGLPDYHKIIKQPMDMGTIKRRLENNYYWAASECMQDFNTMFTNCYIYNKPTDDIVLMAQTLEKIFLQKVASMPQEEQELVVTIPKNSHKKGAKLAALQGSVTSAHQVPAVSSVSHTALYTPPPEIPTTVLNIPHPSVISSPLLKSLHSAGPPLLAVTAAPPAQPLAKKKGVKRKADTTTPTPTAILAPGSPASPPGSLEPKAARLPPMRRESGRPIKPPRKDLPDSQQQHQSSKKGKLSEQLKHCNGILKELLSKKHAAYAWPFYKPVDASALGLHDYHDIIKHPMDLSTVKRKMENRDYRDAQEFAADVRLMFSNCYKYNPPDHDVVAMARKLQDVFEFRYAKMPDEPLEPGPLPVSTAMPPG

What was measured:
[1] = biological target: His-Brd3(20-477) (Homo sapiens (Human), UniProt Q15059); assay: TR-FRET in-vitro binding assay for BRD3; details: biochemical
Procedure: (§1) TR-FRET In-Vitro Binding Assays for BRD2, BRD3, and BRD4:
All assays were performed in 384-well microtiter plates. Each assay plate contained 8-point serial dilutions for 40 test compounds, plus 16 high- and 16 low controls. Liquid handling and incubation steps were done on an Innovadyne Nanodrop Express equipped with a robotic arm (Thermo CatX, Perkin Elmer/Caliper Twister II) and an incubator (Liconic STX40, Thermo Cytomat 2C450). The assay plates were prepared by addition of 50 nl per well of compound solution in 90% DMSO HummingBird nanodispenser (Zinsser Analytic). The assay was started by stepwise addition of 4.5 μL per well of bromo domain protein (50 mM HEPES, pH 7.5, 0.005% Tween20, 0.1% BSA, 50 mM NaCl, 45 nM His-Brd2(60-472) or 45 nM His-Brd3(20-477) or 45 nM His-Brd4(44-477) all proteins produced in-house) and 4.5 μL per well of peptide solution (50 mM HEPES, pH 7.5, 0.005% Tween20, 0.1% BSA, 50 mM NaCl, 60 nM acetyl-histone H4 (AcK 5, 8, 12, 16) (Biosyntan GmbH)). Reactions were incubated at 30° C. for 35 minutes. Subsequently 4.5 μL per well detection mix (50 mM HEPES, pH 7.5, 0.005% Tween20, 0.1% BSA, 50 mM NaCl, 3 nM Eu-labeled anti-His6 antibody, 21 nM streptavidin-allophycocyanin) were added. After minutes incubation at 30° C., plates were measured in a Perkin Elmer EnVision multilabel reader. […]

[2] = biological target: His-Brd2(60-472) (Homo sapiens (Human), UniProt P25440); assay: TR-FRET in-vitro binding assay for BRD2; details: biochemical
Procedure: as §1
All assays were performed in 384-well microtiter plates. Each assay plate contained 8-point serial dilutions for 40 test compounds, plus 16 high- and 16 low controls. Liquid handling and incubation steps were done on an Innovadyne Nanodrop Express equipped with a robotic arm (Thermo CatX, Perkin Elmer/Caliper Twister II) and an incubator (Liconic STX40, Thermo Cytomat 2C450). The assay plates were prepared by addition of 50 nl per well of compound solution in 90% DMSO HummingBird nanodispenser (Zinsser Analytic). The assay was started by stepwise addition of 4.5 μL per well of bromo domain protein (50 mM HEPES, pH 7.5, 0.005% Tween20, 0.1% BSA, 50 mM NaCl, 45 nM His-Brd2(60-472) or 45 nM His-Brd3(20-477) or 45 nM His-Brd4(44-477) all proteins produced in-house) and 4.5 μL per well of peptide solution (50 mM HEPES, pH 7.5, 0.005% Tween20, 0.1% BSA, 50 mM NaCl, 60 nM acetyl-histone H4 (AcK 5, 8, 12, 16) (Biosyntan GmbH)). Reactions were incubated at 30° C. for 35 minutes. Subsequently 4.5 μL per well detection mix (50 mM HEPES, pH 7.5, 0.005% Tween20, 0.1% BSA, 50 mM NaCl, 3 nM Eu-labeled anti-His6 antibody, 21 nM streptavidin-allophycocyanin) were added. After minutes incubation at 30° C., plates were measured in a Perkin Elmer EnVision multilabel reader.
Test compounds were dissolved in DMSO (10 mM) and transferred into 1.4 mL flat bottom or V-shaped Matrix tubes carrying a unique 2D matrix. The stock solutions were stored at […] if not used immediately. For the test procedure the vials were defrosted and identified by a scanner whereby a working sheet was generated that guided the subsequent working steps. Compound dilutions were made in 96 well plates. This format enabled the assay of maximally […] at 8 concentrations (single points) including 4 reference compounds, if desired (known BET inhibitors from the prior art, for this and other assays of the type disclosed herein). The dilution protocol included the production of “pre-dilution plates”, “master plates” and “assay plates”. […]

Row | Compound | IC50 [1] [nM] | IC50 [2] [nM]
1 | Cc1nn(C2CC2)c2c1[C@@H](c1ccc(Cl)cc1)N(c1cc(C)c3nnc(C)n3n1)C2=O [Example 122, (R)-4-(4-chlorophenyl)-1-cyclopropyl-5-(3,8-dimethyl-[1,2,4]triazolo[4,3-b]-pyridazin-6-yl)-3-methyl-4,5-dihydropyrrolo[3,4-c]pyrazol-6(1H)-one] | < 11 | 12
2 | COc1c2c(nn1C)C(=O)N(c1cc(C)c(=O)n(C)c1)C2c1ccc(Cl)cc1 (centres unmarked) [Example 77, 4-(4-chlorophenyl)-5-(1,5-dimethyl-6-oxo-1,6-dihydropyridin-3-yl)-3-methoxy-2-methyl-4,5-dihydropyrrolo[3,4-c]pyrazol-6(2H)-one] | 120 | 120
3 | Cc1cc(N2C(=O)c3c(c(C4CC4)nn3C)[C@H]2c2ccc(Cl)cc2)cn2c(C)nnc12 [Example 164, (R)-4-(4-chlorophenyl)-3-cyclopropyl-5-(3,8-dimethyl-[1,2,4]triazolo[4,3-a]pyridin-6-yl)-1-methyl-4,5-dihydropyrrolo[3,4-c]pyrazol-6(1H)-one] |  | 20
